Target: Kappa-type opioid receptor (Homo sapiens, UniProt P41145)
Experiment: Enhancement of [35S]GTP-gamma-S binding to human KOR expressed in CHO cells relative to U50,488H
Type: functional, cell-based

Amino acid sequences for entries named in this document (tags omitted). A change or cut given only in a name is not applied to a line headed by its entry.
UniProt P41145: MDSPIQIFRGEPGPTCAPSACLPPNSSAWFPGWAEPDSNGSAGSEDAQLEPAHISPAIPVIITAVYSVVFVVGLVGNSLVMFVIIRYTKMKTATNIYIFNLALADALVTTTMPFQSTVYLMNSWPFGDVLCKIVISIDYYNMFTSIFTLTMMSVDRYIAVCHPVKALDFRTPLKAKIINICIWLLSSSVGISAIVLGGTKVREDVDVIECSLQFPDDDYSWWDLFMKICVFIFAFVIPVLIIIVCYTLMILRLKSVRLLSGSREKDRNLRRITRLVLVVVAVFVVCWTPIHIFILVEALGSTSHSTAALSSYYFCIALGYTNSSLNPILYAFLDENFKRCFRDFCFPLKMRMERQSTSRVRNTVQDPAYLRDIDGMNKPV

COC(=O)[C@@H]1C[C@@H](OC(C)=O)C(=O)[C@H]2[C@@]1(C)CC[C@H]1C(=O)O[C@H](c3ccoc3)C[C@]21C
Efficacy: 102%

Source: ChEMBL document CHEMBL1149338, “Synthesis and in vitro evaluation of salvinorin A analogues: effect of configuration at C(2) and substitution at C(18)” (Bioorg Med Chem Lett, 2006)
